{"source": "PubChem BioAssay AID740", "about": "(SRMLSC, 2007)", "note": "Only a part is listed here, and it is no random draw. Activity calls are given as the source filed them. Rule as the data show it: active = inhibition above about 25%; inactive = the rest."}
{"test": "unspecified inhibition readout at 50 µM (AID 740)", "settings": "unspecified screen, stronger effect = higher value"}
{"smiles": "CCOP1(=S)c2c(C)nn(CCC#N)c2N=C(c2ccccc2F)N1C", "note": "(stereo not given)", "inhibition": "inactive: 0.69%"}
{"smiles": "Clc1n[nH]nc1-c1nn[nH][15n]1", "inhibition": "inactive: 0.26%"}
{"smiles": "O=P1(Nc2ccccn2)COc2ccccc2OC1", "inhibition": "inactive: 0.45%"}
{"smiles": "Cc1ccc(OCC(=O)OC2CN3CCC2CC3)cc1", "note": "(stereo not given)", "inhibition": "inactive: 0.44%"}
{"smiles": "O=P1(Nc2ncccn2)COc2ccccc2OC1", "inhibition": "inactive: 1.07%"}
{"smiles": "O=C(COc1ccccc1)OC1CN2CCC1CC2", "note": "(stereo not given)", "inhibition": "inactive: 0.98%"}
{"smiles": "COP1(=S)c2c(C)nn(CCC#N)c2N=C(c2ccc(F)cc2)N1C", "note": "(stereo not given)", "inhibition": "inactive: 0.32%"}
{"smiles": "CCOP(=O)(Nc1ccccc1)OCC", "inhibition": "inactive: 0.03%"}
{"smiles": "Cc1c2non([O-])c-2c(C)[n+](=O)[n+]1[O-]", "inhibition": "inactive: 0.07%"}
{"smiles": "Oc1ccccc1CNc1ccccn1", "inhibition": "inactive: 1.06%"}
{"smiles": "CC(=O)N1C2C3N(C(C)=O)C1C1N(C(C)=O)C(C(N1C(C)=O)N3C(C)=O)N2C(C)=O", "inhibition": "inactive: 0.53%"}
{"smiles": "O=[N+]([O-])c1cccc2n[nH]nc12", "inhibition": "inactive: 0.02%"}
{"smiles": "O=P(Nc1nccs1)(c1ccccc1)c1ccccc1", "inhibition": "inactive: 0.58%"}
{"smiles": "CCC(=O)N1C2C3N(C(=O)CC)C1C1N(C(=O)CC)C(C(N1C(=O)CC)N3C(=O)CC)N2C(=O)CC", "inhibition": "inactive: 0.71%"}
{"smiles": "COC(=O)c1cc2c(s1)N=C(c1ccccc1)N(C)P2(=O)N1CCOCC1", "note": "(stereo not given)", "inhibition": "inactive: 0.37%"}
